Data as given in patent US7842681B2, “Treatment of myeoproliferative diseases” (Abbott Laboratories, priority 2006, dated 2010).

Tested on: circulating platelets
Assay: Thrombocytopenia / clearance of circulating platelets in multiple species
Assay type: in vivo
Experimental: The effect of Bcl-2 protein inhibitors on circulating platelets can be determined by administration of test compounds, preferably orally or intravenously, to an animal and analyzing a blood sample and determining the number of platelets by techniques well-known in the art. Preferably, blood samples are obtained from about 2 hours to about 48 hours after compound administration.

With CC1(C)CCC(c2ccc(Cl)cc2)=C(CN2CCN(c3ccc(C(=O)NS(=O)(=O)c4ccc(N[C@H](CCN5CCOCC5)CSc5ccccc5)c(S(=O)(=O)C(F)(F)F)c4)cc3)CC2)C1 [EXAMPLE 2, N-(4-(4-((2-(4-chlorophenyl)-5,5-dimethyl-1-cyclohex-1-en-1-yl)methyl)piperazin-1-yl)benzoyl)-4-(((1R)-3-(morpholin-4-yl)-1-((phenylsulfanyl)methyl)propyl)amino)-3-((trifluoromethyl)sulfonyl)benzenesulfonamide] the “recovery of platelet counts after treatment” value was “recovery to normal platelet counts within several days” and the thrombocytopenia was “rapid clearance of circulating platelets”.
